This is an account of results in article PMC9412056 (The Journal of Veterinary Medical Science, 2022).

Format in all cases: cell-based
The test system of one assay is canine T cell fraction. As to the kind of experiment: FCM: binding of rhCTLA-4 to canine T cell fraction. The settings on record: rhCTLA-4 Ig, various concentrations; FITC-anti-hIgG-Fc Ab; n = 3.
The subject of another assay is canine DCs. As to the kind of experiment: FCM: binding of rhCTLA-4 to canine DCs. The settings on record: 30 nM rhCTLA-4, FITC-anti-hIgG-Fc Ab.
Assay [1] relates to canine T cells with allogeneic canine DCs. As to the kind of experiment: Canine mixed lymphocyte reaction, [3H]-thymidine incorporation. The conditions noted are these: rhCTLA-4, canine MLR. A general note: Uptake of a labelled nucleoside into DNA is a usual measure of proliferation.

In the case of “rhCTLA-4: chimeric protein composed of the extracellular domain of rhCTLA-4 and a constant region of hIgG”, the “binding to canine T cell fraction (fluorescence intensity)” value with canine T cell fraction is listed as “that of the T cell fraction did not”. Moreover, the “binding to canine DCs (fluorescence intensity)” value with canine DCs is recorded as “observed through an increase in fluorescence intensity”. Further, in assay [1], the “interaction between canine DCs and canine T cells” value is “inhibits the interaction between canine DCs and canine T cells”.
